# Membrane permeability of cyclic peptides

Values of Kelly et al. 2021, doi:10.1021/jacs.0c06115, as listed in CycPeptMPDB.

PAMPA is the parallel artificial membrane permeability assay, which has no cells and reads passive diffusion. Permeability is in 10^-6 cm/s, converted from the database's log10 values; higher is more permeable.

| SMILES | PAMPA (10^-6 cm/s) |
|---|---|
| CC(=O)N1CCC[C@H]1C(=O)N(C)[C@@H](CC(C)C)C(=O)N[C@@H]1C(=O)N(C)[C@@H](CC(C)C)C(=O)N(C)[C@@H](CC(C)C)C(=O)N(C)[C@@H](CC(C)C)C(=O)N[C@@H](C)C(=O)N[C@H](CC(C)C)C(=O)N2CCC[C@H]2C(=O)O[C@@H]1C | 0.2 |
| CC(=O)N1CCC[C@H]1C(=O)N(C)[C@H](CC(C)C)C(=O)N[C@@H]1C(=O)N[C@H](CC(C)C)C(=O)N(C)[C@H](CC(C)C)C(=O)N(C)[C@@H](CC(C)C)C(=O)N[C@@H](C)C(=O)N[C@@H](CC(C)C)C(=O)N2CCC[C@H]2C(=O)O[C@@H]1C | 2.2 |
| CC(=O)N1CCC[C@H]1C(=O)N[C@@H]1C(=O)N(C)[C@H](CC(C)C)C(=O)N[C@@H](CC(C)C)C(=O)N[C@@H](CC(C)C)C(=O)N(C)[C@@H](CC(C)C)C(=O)N[C@@H](C)C(=O)N[C@@H](CC(C)C)C(=O)N2CCC[C@@H]2C(=O)O[C@@H]1C | 0.98 |
| CC(=O)N1CCC[C@H]1C(=O)N(C)[C@@H](CC(C)C)C(=O)N[C@@H]1C(=O)N[C@H](CC(C)C)C(=O)N[C@@H](CC(C)C)C(=O)N[C@@H](CC(C)C)C(=O)N[C@@H](C)C(=O)N[C@@H](CC(C)C)C(=O)N2CCC[C@H]2C(=O)O[C@@H]1C | 0.79 |
| CC(=O)N1CCC[C@H]1C(=O)N[C@@H]1C(=O)N(C)[C@H](CC(C)C)C(=O)N[C@H](CC(C)C)C(=O)N[C@H](CC(C)C)C(=O)N(C)[C@H](CC(C)C)C(=O)N(C)[C@H](C)C(=O)N[C@@H](CC(C)C)C(=O)N2CCC[C@@H]2C(=O)O[C@@H]1C | 0.074 |
| CC(=O)N1CCC[C@@H]1C(=O)N(C)[C@H](CC(C)C)C(=O)N[C@@H]1C(=O)N[C@@H](CC(C)C)C(=O)N(C)[C@H](CC(C)C)C(=O)N(C)[C@H](CC(C)C)C(=O)N[C@@H](C)C(=O)N[C@@H](CC(C)C)C(=O)N2CCC[C@H]2C(=O)O[C@@H]1C | 0.22 |
| CC(=O)N1CCC[C@H]1C(=O)N[C@@H]1C(=O)N[C@H](CC(C)C)C(=O)N[C@H](CC(C)C)C(=O)N[C@H](CC(C)C)C(=O)N[C@H](CC(C)C)C(=O)N[C@H](C)C(=O)N[C@@H](CC(C)C)C(=O)N2CCC[C@@H]2C(=O)O[C@@H]1C | 1.1 |
| CC(=O)N1CCC[C@@H]1C(=O)N(C)[C@H](CC(C)C)C(=O)N[C@@H]1C(=O)N[C@H](CC(C)C)C(=O)N[C@H](CC(C)C)C(=O)N(C)[C@H](CC(C)C)C(=O)N(C)[C@H](C)C(=O)N[C@H](CC(C)C)C(=O)N2CCC[C@H]2C(=O)O[C@@H]1C | 0.16 |
| CC(=O)N1CCC[C@@H]1C(=O)N(C)[C@H](CC(C)C)C(=O)N[C@@H]1C(=O)N[C@H](CC(C)C)C(=O)N[C@H](CC(C)C)C(=O)N[C@H](CC(C)C)C(=O)N(C)[C@@H](C)C(=O)N[C@H](CC(C)C)C(=O)N2CCC[C@@H]2C(=O)O[C@@H]1C | 0.46 |
| CC(=O)N1CCC[C@@H]1C(=O)N(C)[C@@H](CC(C)C)C(=O)N[C@@H]1C(=O)N(C)[C@@H](CC(C)C)C(=O)N(C)[C@H](CC(C)C)C(=O)N(C)[C@H](CC(C)C)C(=O)N(C)[C@@H](C)C(=O)N[C@H](CC(C)C)C(=O)N2CCC[C@H]2C(=O)O[C@@H]1C | 5 |
| CC(=O)N1CCC[C@H]1C(=O)N(C)[C@@H](CC(C)C)C(=O)N[C@@H]1C(=O)N(C)[C@@H](CC(C)C)C(=O)N(C)[C@H](CC(C)C)C(=O)N[C@H](CC(C)C)C(=O)N[C@H](C)C(=O)N[C@@H](CC(C)C)C(=O)N2CCC[C@H]2C(=O)O[C@@H]1C | 0.52 |
| CC(=O)N1CCC[C@@H]1C(=O)N(C)[C@H](CC(C)C)C(=O)N[C@@H]1C(=O)N(C)[C@@H](CC(C)C)C(=O)N[C@H](CC(C)C)C(=O)N(C)[C@@H](CC(C)C)C(=O)N(C)[C@@H](C)C(=O)N[C@H](CC(C)C)C(=O)N2CCC[C@H]2C(=O)O[C@@H]1C | 3.6 |
| CC(=O)N1CCC[C@@H]1C(=O)N(C)[C@H](CC(C)C)C(=O)N[C@@H]1C(=O)N[C@@H](CC(C)C)C(=O)N[C@H](CC(C)C)C(=O)N(C)[C@@H](CC(C)C)C(=O)N(C)[C@@H](C)C(=O)N[C@H](CC(C)C)C(=O)N2CCC[C@@H]2C(=O)O[C@@H]1C | 2 |
| CC(=O)N1CCC[C@H]1C(=O)N[C@@H]1C(=O)N[C@H](CC(C)C)C(=O)N(C)[C@H](CC(C)C)C(=O)N[C@@H](CC(C)C)C(=O)N[C@H](CC(C)C)C(=O)N(C)[C@H](C)C(=O)N[C@@H](CC(C)C)C(=O)N2CCC[C@@H]2C(=O)O[C@@H]1C | 13 |

The last 2 entries again:

SMILES	PAMPA (10^-6 cm/s)
CC(=O)N1CCC[C@@H]1C(=O)N(C)[C@H](CC(C)C)C(=O)N[C@@H]1C(=O)N[C@@H](CC(C)C)C(=O)N[C@H](CC(C)C)C(=O)N(C)[C@@H](CC(C)C)C(=O)N(C)[C@@H](C)C(=O)N[C@H](CC(C)C)C(=O)N2CCC[C@@H]2C(=O)O[C@@H]1C	2
CC(=O)N1CCC[C@H]1C(=O)N[C@@H]1C(=O)N[C@H](CC(C)C)C(=O)N(C)[C@H](CC(C)C)C(=O)N[C@@H](CC(C)C)C(=O)N[C@H](CC(C)C)C(=O)N(C)[C@H](C)C(=O)N[C@@H](CC(C)C)C(=O)N2CCC[C@@H]2C(=O)O[C@@H]1C	13

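Conditions beyond the assay type are not listed; see the original paper. The list need not hold all peptides of the study. Entries at the database's floor value (log10 P of -10) are not listed.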